Test results as given in PubChem BioAssay AID686979 (National Center for Advancing Translational Sciences (NCATS), 2013).
Out of some 420,000 compounds screened, about 50,000 (12%) were called active. Listed are the inconclusive results; actives and inactives stand elsewhere. The call rests on the fitted dose curve; in most records, active means well fitted inhibition curve with a large enough effect; inconclusive means small, poorly fitted or top-dose-only effect; inactive means flat fitted curve, though single readings scatter.

Assay: qHTS for Inhibitors of human tyrosyl-DNA phosphodiesterase 1 (TDP1): qHTS in cells in presence of CPT; further: nearly all actives have a fitted effect of over 55% in size
Conditions: chicken DT40 Tdp1-/-;hTDP1 cells + 20 nM CPT, ATP luminescence, 48 h; activity change, negative = growth inhibition: at 46.2 µM (top of the series)
On the % scale 0 is the no-effect control and ±100 the full control effect; potency means the concentration at half of the fitted maximal effect.

| SMILES | Potency | activity change, negative = growth inhibition |
| --- | --- | --- |
| O=C(O)C(=O)c1ccc(N(CCCl)CCCl)cc1 | inconclusive: 7.31 µM | – |
| Cc1cc(SC(NC(=O)c2ccccc2)C(Cl)(Cl)Cl)nc(C(C)C)n1 (stereo not given) | inconclusive: 20.6 µM | – |
| CC(C)c1ccc(OP(=O)(Nc2ccccn2)Oc2ccccc2F)cc1 (stereo not given) | inconclusive: 23.1 µM | – |
| O=[N+]([O-])c1ccc(-c2cc([N+](=O)[O-])c(O)c([N+](=O)[O-])c2)cc1 | inconclusive: 16.4 µM | – |
| CO[C@@H]1[C@H](OC(=O)/C=C/C=C/C=C/C=C/C(=O)O)CC[C@]2(CO2)[C@H]1[C@@]1(C)O[C@@H]1CC=C(C)C | inconclusive: 11.9 µM | – |
| O=[N+]([O-])c1cc(Oc2ccc([N+](=O)[O-])cc2C(F)(F)F)cc([N+](=O)[O-])c1 | inconclusive: 16.4 µM | – |
| COc1cc(I)ccc1[As](=O)(O)O | inconclusive: 18.4 µM | – |
| O=P1(N(CCCl)CCCl)Nc2ccccc2N1 | inconclusive: 25.9 µM | – |
| O=C(OC1CN2CCC1CC2)C12CC3CC(CC(C3)C1)C2 (stereo not given) | inconclusive: 20.6 µM | – |
| COc1cc(C(=O)NCC2(N3CCOCC3)CCCCC2)cc(Cl)c1OC(C)C | inconclusive: 16.4 µM | – |
| NC(=O)Nc1ccc([As](=O)(O)O)cc1 | inconclusive: 0.0024 µM | – |
| CCOP1(=S)c2c(C)nn(CCC#N)c2N=C(c2ccccc2F)N1C (stereo not given) | – | inconclusive: -38.9% |
| Cc1ccc(S(=O)(=O)N(CCCN)CCCc2c(C)nc(N)[nH]c2=O)cc1 | – | inconclusive: -55.3% |
| CC1(CBr)Cn2c(nc3ccccc3c2=O)S1 (stereo not given) | inconclusive: 20.6 µM | – |
| COc1cccc([N+](=O)[O-])c1[N+](=O)[O-] | inconclusive: 22.4 µM | – |
| Nc1ccc(CCCCOc2ccccc2)cc1 | inconclusive: 8.2 µM | – |
| CC(NC(=O)COC(=O)C(O)(c1ccccc1)c1ccccc1)c1ccccc1 (stereo not given) | inconclusive: 23.1 µM | – |
| Cc1ccccc1OP(=O)(Nc1ccccn1)Oc1ccccc1C | inconclusive: 20.6 µM | – |
| COC1C(OC(=O)/C=C/C=C/C=C/C=C/C(=O)O)CCC2(CO2)C1C1(C)OC1CC=C(C)C (stereo not given) (tested in a mixture with another compound) | inconclusive: 0.0184 µM | – |
| CC(=O)Nc1ccc(Oc2c([N+](=O)[O-])cc([N+](=O)[O-])cc2[N+](=O)[O-])cc1 | inconclusive: 20.6 µM | – |
| O=[N+]([O-])c1cc2c(cc1[N+](=O)[O-])OCO2 | inconclusive: 35.5 µM | – |
| Nc1c(O)cc([N+](=O)[O-])cc1[N+](=O)[O-] | inconclusive: 35.5 µM | – |
| Cc1cc(SC(NC(=O)c2ccc(F)cc2)C(Cl)(Cl)Cl)ncn1 (stereo not given) | inconclusive: 18.4 µM | – |
| Cc1cc(C=O)ccc1N(CCCl)CCCl | inconclusive: 28.2 µM | – |
| CC(C)c1nc(Nc2ccccc2)n(P(=O)(N(C)C)N(C)C)n1 | inconclusive: 20.6 µM | – |
